## Ab-14 heavy chain CDR variants: yeast mating affinities

Values reported by Li et al. 2023, doi:10.1038/s41467-023-39022-2 (FLAb copy).

Binding partner: SARS-CoV-2 spike HR2 peptide, sequence PDVDLGDISGINAS.

Parent scFv Ab-14: VH joined to VL by a 15-residue (Gly4Ser)3 linker. Changes lie in the heavy chain CDRs alone.
VH: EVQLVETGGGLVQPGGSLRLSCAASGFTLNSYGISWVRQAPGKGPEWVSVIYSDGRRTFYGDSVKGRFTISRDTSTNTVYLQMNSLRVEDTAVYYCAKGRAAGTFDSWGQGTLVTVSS
VL: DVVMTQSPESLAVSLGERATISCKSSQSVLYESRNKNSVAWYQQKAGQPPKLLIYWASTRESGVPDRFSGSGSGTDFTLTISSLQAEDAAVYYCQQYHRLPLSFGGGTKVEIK

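The starting antibody came from a phage panning campaign against this peptide. Designed CDR sequences, proposed from the first random library and measured here. Several design methods are mixed in this list. AlphaSeq pools MATa yeast showing the antibodies with MATalpha yeast showing the peptide. After mating in shaken culture at 30 °C for 16 h, diploids were selected and their barcode pairs sequenced. Each replicate has its own calibration line, from reference interactions of the BCL2 family. The assay was run in six technical replicates.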

Variants are written as CDR1, CDR2 and CDR3 of the heavy chain (limits as in the source). Parent: GFTLNSYGIS, VIYSDGRRTFYGDSVK, GRAAGTFDS. This list holds designs with more than six substitutions. Scale: log10 of Kd in nM, estimated from mating counts; low values are strong binders. Averages over replicates are reported, and they cover detected replicates only. A pair that was not seen in any replicate is written "nd"; this usually means weak binding, but a binder can also be missed.

Variant GFNLDEYGIS / VIYADGMRTAFGDNVK / GTVFGDFVF gave nd (0 of 6 replicates). For GFDLGEYGIS / VIYADGVRQSYADKVK / GANGVFSLV, the assay gave nd (0 of 6 replicates). For GFDINEYGIS / VIYADGRRTAYTDSVK / GGNAGTFDV, the assay gave 0.16 (6 of 6 replicates). Variant GFDLNEYGIS / VIYADGRRTYYIDSVK / GEQAGTFDV gave -0.45 (6 of 6 replicates). Variant GFVFDEYGIS / VIYADGIRQFYQDKVK / GEVTGMFDT showed nd (0 of 6 replicates). With GFDLNEYGIS / VIYADGRRTFYADSVK / GKNAGTFIV the result was nd (0 of 6 replicates).

With GYNIDEYGIS / VIYADGQRTAYQNSVK / GEQAGIDMY the result was nd (0 of 6 replicates). For GFDLNEYGIS / VIYADGRRTAYVDSVK / GNVAGTFDT, the assay gave -0.70 (6 of 6 replicates). With GFQLEDYGIS / VIYADGRRTAYAADVK / GQNTVVSGG the result was nd (0 of 6 replicates). For GFDLNEYGIS / VIYADGMRTAYADDVK / GNVAGTFDT, the assay gave 0.59 (6 of 6 replicates). Variant GQGLDEYGIS / VIYADGMRTYYTPNVK / GQVLGVMNI gave nd (0 of 6 replicates). For GFDLDEYGIS / VIYADGKRTAYQADVK / GVQGGNALV, the assay gave nd (0 of 6 replicates).

For GFDLNEYGIS / VIYADGMRTAYTDSVK / GTNAGTFDL, the assay gave -0.19 (6 of 6 replicates). Variant GDDLEEYGIS / VIYADGMRTYYSDSVK / GNVNGTFFD gave nd (0 of 6 replicates). Variant GFELSEYGIS / VIYADGVRVEYTQSVK / GQLGGHFNV gave nd (0 of 6 replicates). For GFSLDEYGIS / VIYADGRRTFYADSVK / GNSAGTFDA, the assay gave -0.04 (6 of 6 replicates). Variant GFDLNEYGIS / VIYADGMRTFYTDSVK / GENAGTFDV gave -0.39 (6 of 6 replicates). Variant GFGLSEYGIS / VIYADGMRTSYDDSIK / GALAGTFDE gave 0.70 (2 of 6 replicates).

With GFDLNEYGIS / VIYADGMRTAYADSVK / GEIAGTFDV the result was -0.16 (6 of 6 replicates). With GFDLNEYGIS / VIYADGQRTAYANSVK / GNVAGTFDL the result was -0.46 (6 of 6 replicates). For GFNLDEYGIS / VIYADGVRRAVIDNVK / GLVRFDFDL, the assay gave nd (0 of 6 replicates). With GFSLDEYGIS / VIYADGRRTFYADSVK / GNVAGTFDQ the result was -0.05 (6 of 6 replicates). For GMSLDSYGIS / VIYADGMRTSYDNSVK / GAWAGTFDE, the assay gave 1.09 (5 of 6 replicates). Variant GFDLNEYGIS / VIYADGRRTFYVDSVK / GNVAGTFDV gave -0.64 (6 of 6 replicates).

For GFDLDEYGIS / VIYADGRRTAYADSVK / GENAGTFDM, the assay gave -0.62 (6 of 6 replicates). Variant GFDLNEYGIS / VIYADGLRTAYIDSVK / GNVAGTFDV showed -1.11 (6 of 6 replicates). For GEDLQEYGIS / VIYADGQRQEYSDDVK / GQVAGHFLH, the assay gave nd (0 of 6 replicates). Variant GFDLNEYGIS / VIYADGLRTAYVDSVK / GNVAGTFDI gave -0.54 (6 of 6 replicates). Variant GFDVEEYGIS / VIYADGRRSSYSQSVK / GVYSGTIYV showed nd (0 of 6 replicates). Variant GFDLNEYGIS / VIYADGQRTAYADSVK / GQLAGTFDT showed 0.01 (6 of 6 replicates).

Variant GFDLNEYGIS / VIYADGRRTFYTDSVK / GVNAGTFDV showed -0.32 (6 of 6 replicates). Variant GFDLTEYGIS / VIYADGRRTEYSTDVK / GQVAGHFLD showed nd (0 of 6 replicates). With GFTLNQYYIS / VIYSDGRRTFASFSVK / GRAAGFMDS the result was nd (0 of 6 replicates). With GFDLQEYGIS / VIYADGLRSMVTNSVK / GNSGGMVLV the result was nd (0 of 6 replicates). For GFDLNEYGIS / VIYADGMRTAYADDVK / GNTAGTFDM, the assay gave -0.32 (6 of 6 replicates). Variant GFDLNEYGIS / VIYADGMRTAYSDSVK / GNVAGTFDQ showed -0.34 (6 of 6 replicates).

With GFSLDEYGVS / VIYADGLRTQYVNDVK / GLESFAVKM the result was nd (0 of 6 replicates). For GFNLEDYGIS / VIYADGQRTFYADSVK / GKVAGTFDV, the assay gave -0.74 (6 of 6 replicates). With GFDLNEYGIS / VIYADGMRSAYADSVK / GENAGTFDV the result was -0.17 (6 of 6 replicates). Variant GFDLNEYGIS / VIYADGMRTFYADSVK / GNEAGTFDM gave -0.64 (5 of 6 replicates). Variant GFDLNEYGIS / VIYADGKRTAYIDSVK / GNEAGTFDV showed -0.34 (6 of 6 replicates). With GFDLNEYGIS / VIYADGMRTAYTDSVK / GETAGTFDL the result was -0.22 (6 of 6 replicates).

Excerpt, the first 6 entries:

CDR-H1,CDR-H2,CDR-H3,"log10 Kd (nM), mean",seen in
GFNLDEYGIS,VIYADGMRTAFGDNVK,GTVFGDFVF,nd,0 of 6
GFDLGEYGIS,VIYADGVRQSYADKVK,GANGVFSLV,nd,0 of 6
GFDINEYGIS,VIYADGRRTAYTDSVK,GGNAGTFDV,0.16,6 of 6
GFDLNEYGIS,VIYADGRRTYYIDSVK,GEQAGTFDV,-0.45,6 of 6
GFVFDEYGIS,VIYADGIRQFYQDKVK,GEVTGMFDT,nd,0 of 6
GFDLNEYGIS,VIYADGRRTFYADSVK,GKNAGTFIV,nd,0 of 6

As a blank, each scFv also met three strains without target: over all heavy chain designs, 1% of these pairings were detected, typically at 2.08 and seldom below 0.84. The authors averaged sequences with at least three values out of six and counted those with two or fewer as poor binders. Of ten entries with the parent sequence, four were seen in most replicates (averages 0.34 to 2.37), three in one and three in none, so single entries are noisy. Values of this round are not directly comparable with the first-round values of the same sequences.